# Laboratory results published in ChEMBL document CHEMBL1130729, “Synthesis and transporter binding properties of (R)-2 beta, 3 beta- and (R)-2 alpha, 3 alpha-diaryltropanes” (Bioorg Med Chem Lett, 1998).
# The chains behind the UniProt entries cited, without tags or fusion partners.
# UniProt P23977, whole entry: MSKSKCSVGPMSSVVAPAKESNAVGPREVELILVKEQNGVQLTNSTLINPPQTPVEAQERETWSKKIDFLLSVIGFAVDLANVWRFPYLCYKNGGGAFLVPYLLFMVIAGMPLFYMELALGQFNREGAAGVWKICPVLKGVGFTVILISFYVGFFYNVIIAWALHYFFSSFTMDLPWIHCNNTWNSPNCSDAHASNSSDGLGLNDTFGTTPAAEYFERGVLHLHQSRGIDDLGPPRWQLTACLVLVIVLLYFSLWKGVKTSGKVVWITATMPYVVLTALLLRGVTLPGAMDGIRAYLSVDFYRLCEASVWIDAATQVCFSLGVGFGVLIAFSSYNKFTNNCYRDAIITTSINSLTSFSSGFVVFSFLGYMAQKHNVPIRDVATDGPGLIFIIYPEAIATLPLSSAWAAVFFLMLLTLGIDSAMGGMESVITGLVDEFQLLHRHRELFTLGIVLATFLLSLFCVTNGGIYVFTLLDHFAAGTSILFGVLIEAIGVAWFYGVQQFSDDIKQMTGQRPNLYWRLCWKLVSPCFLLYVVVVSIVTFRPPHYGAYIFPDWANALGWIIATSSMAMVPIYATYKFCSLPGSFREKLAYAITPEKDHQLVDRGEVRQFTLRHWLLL
# Target: Sodium-dependent dopamine transporter (Rattus norvegicus, UniProt P23977)
# Assay: Inhibitory activity against radioligand [3H]WIN-35428 binding at the dopamine transporter
compound,measurement,value
CN1[C@@H]2CC[C@H]1C(c1ccccc1)C(c1ccccc1)C2 (mixture of isomers; form 2),IC50,1.27 µM
